The assay relates to murine myoblast C2C12 cells. Nature of the assay: Osteogenic trans-differentiation of C2C12 cells (ALP stain). It counts as cell-based, mouse. The protocol:
Grafts (5×5×1 mm, FlexBone 25% HA-25% TCP) were pre-absorbed with varying amounts of growth factors and cytokines to provide an exogenous supply for remodeling. Grafts loaded with growth factors rhBMP-2, rmRANKL, and rhVEGF165 were analyzed at the respective preferred doses. The preferred loading dose of RANKL (10 ng/FlexBone graft) was determined by the osteoclastic differentiation of macrophage RAW264.7, induced by the RANKL released from the graft as indicated by positive TRAP stains (purple) of multinucleated cells on Day 6. […] The preferred loading dose of rhBMP-2/7 heterodimer (40 ng/FlexBone graft) was determined by the osteogenic differentiation of C2C12 cells induced by the BMP-2/7 released from the graft in culture. […] Finally, the preferred loading dose of rhVEGF165 in stimulating the proliferation of human vascular endothelial cells in culture was determined to be 5 ng/graft.
Osteogenic trans-differentiation of murine myoblast C2C12 cells induced by the rhBMP-2/7 locally released from FlexBone. The bioactivity of the exogenous rhBMP-2/7 released from FlexBone was evaluated by its ability to induce osteogenic trans-differentiation of mouse myoblast C2C12 cells three days after placing the FlexBone graft pre-loaded with rhBMP-2/7 in the low mitogen C2C12 culture. […]

B1: rhBMP-2/7: recombinant protein rhBMP-2/7 heterodimer purchased from R&D Systems (protein, UniProt P12643 283-396; P18075 293-431, looked up)
Bone morphogenetic protein 2: QAKHKQRKRLKSSCKRHPLYVDFSDVGWNDWIVAPPGYHAFYCHGECPFPLADHLNSTNHAIVQTLVNSVNSKIPKACCVPTELSAISMLYLDENEKVVLKNYQDMVVEGCGCR
Bone morphogenetic protein 7: STGSKQRSQNRSKTPKNQEALRMANVAENSSSDQRQACKKHELYVSFRDLGWQDWIIAPEGYAAYYCEGECAFPLNSYMNATNHAIVQTLVHFINPETVPKPCCAPTQLNAISVLYFDDSSNVILKKYRNMVVRACGCH
modifications: heterodimer
notes: recombinant protein rhBMP-2/7 heterodimer purchased from R&D Systems
The molecule B1 returned a preferred loading dose (determined by osteogenic differentiation of C2C12 cells) of 40 ng/FlexBone graft. For the same molecule, the “osteogenic trans-differentiation of C2C12 (ALP activity)” value (single dose 40-ng/mL rhBMP-2/7 (20 ng per well), day three) is recorded as “able to induce osteogenic trans-differentiation of C2C12”.

The record behind these values is US20100159011A1, “Compositions For Biomedical Applications” (University of Massachusetts Medical School, priority 2007, published 2010).
